AlphaSeq binding of Ab-95 light chain variants to a spike HR2 peptide

The target is the same throughout: PDVDLGDISGINAS, from the HR2 region of SARS-CoV-2 spike.

The variants keep the heavy chain, the linker and the frameworks of Ab-95 (scFv order VH, three GGGGS repeats, VL).
VH: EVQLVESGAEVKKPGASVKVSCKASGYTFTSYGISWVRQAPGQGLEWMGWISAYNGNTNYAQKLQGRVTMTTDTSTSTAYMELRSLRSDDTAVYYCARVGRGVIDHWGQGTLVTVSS
VL: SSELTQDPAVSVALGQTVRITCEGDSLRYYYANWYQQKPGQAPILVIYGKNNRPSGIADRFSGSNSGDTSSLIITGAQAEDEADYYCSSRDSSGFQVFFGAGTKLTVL

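AAYL52 was designed without a model: most single CDR substitutions and a random sample of double and triple ones. The scFvs were displayed on barcoded MATa yeast, the peptide on MATalpha yeast. Binding brings cells together so that they mate, and sequencing counts the barcode pairs among the diploids. The ratio of observed to expected reads was calibrated, replicate by replicate, on BCL2-family standards whose Kd was known from biolayer interferometry. There are three technical replicates.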

Changes read parent residue, position, new residue, counted from the first residue of the VL shown. This list gathers variants with a substitution at N51 (VL, numbered from residue 1). Each Kd is an estimate from the mating assay, the geometric mean of the replicates in which the pair was seen; lower is stronger. "no signal" marks a missing value. The strain was present, yet no cells mated with the target were sequenced in any replicate, which points to weak or no binding. Empty control strains, which show no peptide, gave a signal in 28% of pairings with library AAYL52; the median was 8.2 µM and 95% of these signals were weaker than 800 nM. No background was subtracted.

With N51W S88L D91C the result was 13 µM (2 of 3 replicates).
With N33C K50T N51C the result was 15 µM (1 of 3 replicates).
With D25H N51R S55G the result was 7.1 µM (1 of 3 replicates).
With Y31S N51I N52G the result was 140 nM (3 of 3 replicates).
With N51L S93V Q96M the result was 5.5 µM (3 of 3 replicates).
With K50T N51T S93H the result was 12 µM (2 of 3 replicates).
With N51K S55Q S92W the result was 1.9 µM (1 of 3 replicates).
With S26M N51K F98R the result was no signal (0 of 3 replicates).
With Y30L N51S R90L the result was 29 µM (2 of 3 replicates).
With N51G V97I F98V the result was 4.5 µM (2 of 3 replicates).
With R28M N51A P54R the result was no signal (0 of 3 replicates).
With Y31M N51E P54N the result was 510 nM (3 of 3 replicates).
With S26D N51C G94D the result was 9.4 µM (2 of 3 replicates).
With Y31L N51W the result was 10 µM (1 of 3 replicates).
With N51C S55V S92I the result was 1.4 µM (2 of 3 replicates).
With E23N N51F S55F the result was 2.1 µM (2 of 3 replicates).
With A32D K50F N51H the result was 7.4 µM (1 of 3 replicates).
With N33K N51G V97D the result was 26 µM (1 of 3 replicates).
With N51Q S89T F95V the result was 1.1 µM (3 of 3 replicates).
With K50R N51R S88N the result was 6.4 µM (2 of 3 replicates).
With L27I N51D the result was 330 nM (3 of 3 replicates).
With Y31F N51D S88F the result was 250 nM (3 of 3 replicates).
With E23P N51K R53N the result was 4.0 µM (3 of 3 replicates).
With E23V N51K S55H the result was 1.1 µM (2 of 3 replicates).
With N51F N52K G94R the result was no signal (0 of 3 replicates).
With N51Y S89Q D91A the result was 7.5 µM (3 of 3 replicates).
With S26F N33I N51T the result was 32 µM (1 of 3 replicates).
With D25S N51S P54H the result was 1.2 µM (3 of 3 replicates).
With D25H N51P S93T the result was 2.2 µM (2 of 3 replicates).
With A32F N51I R53E the result was no signal (0 of 3 replicates).
With G24Y N51Q S55L the result was 8.5 µM (3 of 3 replicates).
With N51M D91L S93W the result was 170 µM (1 of 3 replicates).
With N51S S88N the result was 1.4 µM (3 of 3 replicates).
With K50I N51D S93I the result was 22 µM (2 of 3 replicates).
With E23L Y30H N51L the result was 1.8 µM (3 of 3 replicates).
With N51V G94V the result was 13 µM (2 of 3 replicates).
With N51Q R90E Q96P the result was 10 µM (1 of 3 replicates).
With Y30I G49N N51P the result was no signal (0 of 3 replicates).
With N51E G94S the result was 1.2 µM (3 of 3 replicates).

Values reported by Engelhart et al. 2022, doi:10.1038/s41597-022-01779-4 (FLAb copy).